Measured values as given in US6319955A, “Use of MEK1 inhibitors as protective agents against damage due to ischemia” (priority 2000, dated 2001).

Tested on: focal cerebral ischemia

SMILES: COc1cccc(-c2cc(=O)c3ccccc3o2)c1N [PD98059, 2-(2-amino-3-methoxyphenyl)-4-oxo-4H-[1]benzopyran]
- decrease in total damage (50 μM i.c.v. pretreatment, P<0.05): 23%
- decrease in total damage (100 μM i.c.v. pretreatment, P<0.05): 42%
- decrease in total damage (200 μM i.c.v. pretreatment, 22 hours following ischemic insult, P<0.01): 55%
- decrease in total damage (200 μM i.c.v. pretreatment, three days post-ischemia, P<0.05): 43%
- protective when injected i.c.v. as pretreatment versus during ischemia (2 hours MCAO): only pretreatment with intraventricular administration of PD98059, but not injection during ischemia, is protective

Like-named read-outs stand apart in the source and are kept apart here.
